Values quoted from earlier work in US20220000880A1, “METHOD AND COMPOSITION EMBODIMENTS FOR TREATING ACUTE MYELOID LEUKEMIA” (Rigel Pharmaceuticals, Inc., priority 2018, published 2022).

Test system: FLT3-ITD positive AML patients
Settings: FLT3-ITD positive AML patients relapsed after stem cell transplantation or after failure of salvage chemotherapy; cited from earlier work

In the case of `CC(C)(C)c1cc(NC(=O)Nc2ccc(-c3cn4c(n3)sc3cc(OCCN5CCOCC5)ccc34)cc2)no1` [quizartinib], the overall survival is listed as “significantly improved overall survival”.
